The numbers were not newly measured in paper PMC5718994, “Synthesis and analytical characterization of new thiazol-2-(3H)-ones as human neutrophil elastase (HNE) inhibitors” (Chemistry Central Journal, 2017), which cites them from elsewhere.

The data set relates to HNE. The note with it: HNE inhibitor, Fig. 1; cited from earlier work.

As a reminder, the IC50 is the concentration at which inhibition is half-maximal. With `CC(C)(C)C(=O)Oc1ccc(S(=O)(=O)Nc2ccccc2C(=O)NCC(=O)O)cc1` [Sivelestat], the IC50 is 44 nM.
